Assay results from PubChem BioAssay AID743398 (Broad Institute, 2014).
This is a selection; strong and weak results do not stand in their true shares. The source made the active and inactive calls. No stated cut-off is given here; in the data, active means activation above about 30% (passing the limit was not always enough); inconclusive means no clear call, values can overlap the other calls.

Experiment: activation of beta-catenin signaling reporter – cell-based, plate reader, single point, primary screen (AID 743398);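 further: 0% = neutral control wells and 100% = positive control wells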
Conditions: Wnt/beta-catenin reporter cell assay, activator, at 9.35 µM, hits give high values

Structure (SMILES)	activation
O=[N+]([O-])c1cc([N+](=O)[O-])c(Nc2ccccn2)c([N+](=O)[O-])c1	inactive: -0.635%
CCc1ccc(OP(C)(=O)O)cc1	inactive: -3.55%
COc1ccccc1OP(C)(=O)Nc1ccc(C)cc1C (centres undefined)	inactive: -4.86%
COc1ccccc1OP(C)(=O)Nc1ccc(Br)cc1 (centres undefined)	inactive: -1.28%
CN(C)CCOC(=O)C(O)(c1ccccc1)C1CCCC1 (centres undefined)	inactive: -4.97%
COc1ccc(OP(C)(=O)Nc2ccccn2)cc1 (centres undefined)	inactive: -5.73%
CCCCCCCCCCCCCCCC1C[N+](C)(C)CCOP(C)(=O)O1 (centres undefined)	inactive: -2.41%
CP(=O)(Nc1ccc(Cl)cc1Cl)Oc1ccccc1 (centres undefined)	inactive: -0.952%
CP(=O)(OCCOc1ccccc1)OCCOc1ccccc1	inactive: -0.875%
O=C1C(O)=C([N+](=O)[O-])C(=O)C(O)=C1[N+](=O)[O-]	inactive: -7.93%
Cc1cc(C)cc(OP(C)(=O)Nc2cccc(C(F)(F)F)c2)c1 (centres undefined)	inactive: -1.03%
COc1ccc(OP(C)(=O)Nc2ccccc2Br)cc1 (centres undefined)	inactive: 1.75%
Nc1ccc2c(ccc3cccnc32)n1.O=[N+]([O-])c1cc([N+](=O)[O-])c(O)c([N+](=O)[O-])c1	inactive: 26.2%
CP(=O)(OC12CC3CC(CC(C3)C1)C2)OC12CC3CC(CC(C3)C1)C2	inactive: -0.178%
CCOC(=O)c1ccc(NP(C)(=O)Oc2ccc(Cl)cc2)cc1 (centres undefined)	inactive: -0.886%
COc1ccccc1OP(C)(=O)Nc1ccccc1Br (centres undefined)	inactive: 0.326%
CN(C)C(=O)c1c([N+](=O)[O-])cc([N+](=O)[O-])cc1[N+](=O)[O-]	inactive: -0.239%
CCN(CC)CC(O)COC(=O)C(O)(c1ccccc1)C1CCCCC1 (centres undefined)	inactive: 18.4%
COc1ccc(OP(C)(=O)Nc2ccc(Br)cc2)cc1 (centres undefined)	inactive: -4.4%
CCc1ccc(OP(C)(=O)Nc2cccnc2)cc1 (centres undefined)	inactive: -0.646%

Structure (SMILES)	activation
COc1ccccc1OP(C)(=O)Nc1c(C)n(C)n(-c2ccccc2)c1=O (centres undefined)	inactive: 0.457%
O=C(OCCCN1CCCC1)C(O)(c1ccccc1)C1CCCCC1 (centres undefined)	inactive: 1.11%
CCOC(=O)c1ccc(NP(C)(=O)Oc2ccc(OC)cc2)cc1 (centres undefined)	inactive: 0.764%
O=[N+]([O-])c1cc([N+](=O)[O-])c(O)c([N+](=O)[O-])c1.c1ccc(Oc2ccncc2)cc1	inactive: 1.71%
CP(=O)(Nc1ccccn1)Oc1ccc(Cl)cc1 (centres undefined)	inactive: -0.142%
CP(=O)(Nc1ccc(SC(F)(F)F)cc1)Oc1ccc(Cl)cc1 (centres undefined)	inactive: 9.94%
CP(=O)(Oc1ccccc1)OC(c1ccccc1)C(F)(F)F (centres undefined)	inactive: 0.341%
CP(=O)(NC(=O)Nc1ccccc1)Oc1ccccc1 (centres undefined)	inactive: -2.47%
CCc1ccc(OP(C)(=O)N2CCN(c3ccc([N+](=O)[O-])cc3)CC2)cc1 (centres undefined)	inactive: -10.7%
Cc1cc(C)cc(OP(C)(=O)Nc2ccc(SC(F)(F)F)cc2)c1 (centres undefined)	inactive: -4.19%
COc1ccccc1OP(C)(=O)Nc1ccccc1 (centres undefined)	inactive: 0.66%
CP(=O)(Nc1ccccc1Br)Oc1ccccc1 (centres undefined)	inactive: -3.49%
CCOC(=O)c1ccc(NP(C)(=O)Oc2ccccc2)cc1 (centres undefined)	inactive: -4.71%
Cc1ccc(NP(C)(=O)Oc2ccccc2)c(C)c1 (centres undefined)	inactive: 2.16%
COc1ccccc1OP(C)(=O)Nc1cc(Cl)ccc1C (centres undefined)	inactive: -0.536%
COc1ccc(OP(C)(=O)Nc2cccc(F)c2)cc1 (centres undefined)	inactive: -8.1%
Cc1cc(C)cc(OP(C)(N)=O)c1 (centres undefined)	inactive: 1.76%
O=[N+]([O-])c1cc([N+](=O)[O-])c(Nc2cccnc2)c([N+](=O)[O-])c1	inactive: -0.869%
CC(C)(C)c1ccc(OP(C)(=O)Nc2ccc(SC(F)(F)F)cc2)cc1 (centres undefined)	inactive: -7.09%
Cc1cccc(C)c1OP(C)(N)=O (centres undefined)	inactive: 0.523%

Structure (SMILES)	activation
O=[N+]([O-])c1ccc2c(c1)C=Nc1ccccc1O2	inactive: -2.26%
COc1ccccc1-c1ccccn1.O=[N+]([O-])c1cc([N+](=O)[O-])c(O)c([N+](=O)[O-])c1	inactive: 0.136%
CCN(CC)CCCOC(=O)C(O)(c1ccccc1)c1ccccc1	inactive: -0.666%
CP(=O)(Nc1cccc(Br)c1)Oc1ccccc1 (centres undefined)	inactive: -0.202%
COc1ccccc1OP(C)(=O)Nc1cccc(Br)c1 (centres undefined)	inactive: 4.25%
Cc1cc(C)cc(OP(C)(=O)Nc2ccc(C)cc2C)c1 (centres undefined)	inactive: -3.25%
CCOC(=O)c1ccc(NP(C)(=O)Oc2cc(C)cc(C)c2)cc1 (centres undefined)	inactive: -1.01%
O=C(O)c1cccc(Nc2c([N+](=O)[O-])cc([N+](=O)[O-])cc2[N+](=O)[O-])c1	inactive: 8.96%
COc1ccccc1OP(C)(=O)Nc1c(C)cccc1C (centres undefined)	inactive: -1.65%
CN1CCCCC1COC(=O)C1(O)c2ccccc2CCc2ccccc21 (centres undefined)	inactive: -2.5%
CCCOc1ccc(NP(C)(=O)Oc2ccc(Cl)cc2)cc1 (centres undefined)	inactive: -1.34%
CP(=O)(Nc1ccc(SC(F)(F)F)cc1)Oc1ccccc1 (centres undefined)	inactive: -6.72%
COc1ccc(-c2ccccn2)cc1.O=[N+]([O-])c1cc([N+](=O)[O-])c(O)c([N+](=O)[O-])c1	inactive: -0.764%
O=[N+]([O-])c1cc([N+](=O)[O-])c(Nc2nnnn2CCO)c([N+](=O)[O-])c1	inactive: -1.74%
CCOC(=O)C(CC)C1=NC(C)(C)Cc2ccccc21.O=[N+]([O-])c1cc([N+](=O)[O-])c(O)c([N+](=O)[O-])c1 (centres undefined)	inactive: -2.22%
O=[N+]([O-])c1cc([N+](=O)[O-])c(-c2cnn(-c3ccccc3)c2)c([N+](=O)[O-])c1	inactive: 3.03%
Cc1nc2ccc3ccccc3c2s1.O=[N+]([O-])c1cc([N+](=O)[O-])c(O)c([N+](=O)[O-])c1	inactive: -5.05%
O=[N+]([O-])c1cc([N+](=O)[O-])c(-n2nnc3ccccc32)c([N+](=O)[O-])c1	inactive: -0.797%
CN(Cc1cccnc1)C(=O)COc1ccc(Cl)c(Cl)c1.O=[N+]([O-])c1cc([N+](=O)[O-])c(O)c([N+](=O)[O-])c1	inactive: -1.01%
